Source: ChEMBL document CHEMBL1131908, “Delta opioid binding selectivity of 3-ether analogs of naltrindole” (Bioorg Med Chem Lett, 1999)

Chains of the proteins cited; added tags and fusions are not shown.
UniProt P33535, whole entry: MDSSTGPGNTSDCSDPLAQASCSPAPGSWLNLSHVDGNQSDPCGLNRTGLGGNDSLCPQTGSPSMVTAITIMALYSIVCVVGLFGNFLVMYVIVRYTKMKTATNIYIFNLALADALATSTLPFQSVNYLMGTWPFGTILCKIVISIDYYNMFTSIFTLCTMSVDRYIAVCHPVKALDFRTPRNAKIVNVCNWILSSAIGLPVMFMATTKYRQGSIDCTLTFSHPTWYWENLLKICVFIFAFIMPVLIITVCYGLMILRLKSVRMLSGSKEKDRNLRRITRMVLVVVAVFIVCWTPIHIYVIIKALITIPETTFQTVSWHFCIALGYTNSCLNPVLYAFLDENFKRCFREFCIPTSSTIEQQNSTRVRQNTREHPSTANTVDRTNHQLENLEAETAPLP

Target: Mu-type opioid receptor (Rattus norvegicus, UniProt P33535)
Assay: Ability to inhibit binding of [3H]DAMGO to mu opioid receptor

Oc1ccc2c3c1O[C@H]1c4[nH]c5ccccc5c4C[C@@]4(O)[C@@H](C2)N(CC2CC2)CC[C@]314 [NALTRINDOLE]
Ki: 3.2 nM
